Ab-14 light chain CDR variants: yeast mating affinities

Antigen: PDVDLGDISGINAS, a 14-residue peptide of the SARS-CoV-2 spike HR2 region.

Ab-14 is the parent antibody, in scFv form: VH, then a (GGGGS)3 linker, then VL. The heavy chain is unchanged in all variants.
VH: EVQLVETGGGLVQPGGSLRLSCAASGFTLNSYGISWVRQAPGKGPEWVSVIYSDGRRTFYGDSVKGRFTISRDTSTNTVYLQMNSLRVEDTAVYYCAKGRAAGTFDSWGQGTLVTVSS
VL: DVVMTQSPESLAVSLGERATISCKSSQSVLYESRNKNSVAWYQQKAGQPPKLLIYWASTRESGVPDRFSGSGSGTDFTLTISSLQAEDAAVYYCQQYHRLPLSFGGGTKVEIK

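The starting antibody came from a phage panning campaign against this peptide. In library AAYL50, one, two or three CDR residues were substituted; doubles and triples were drawn at random. In AlphaSeq, yeast of one mating type display the scFv and yeast of the other type display the target. Binding brings cells together so that they mate, and sequencing counts the barcode pairs among the diploids. Each replicate has its own calibration line, from reference interactions of the BCL2 family. There are three technical replicates.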

Positions count from residue 1 of the parent VL; E32I puts I in place of E.
This list gathers variants with a substitution at T59 (VL, numbered from residue 1).
Values are log10 of the apparent Kd in nM; lower means stronger binding.
Averages over replicates are reported, and they cover detected replicates only.
A pair that was not seen in any replicate is written "no signal"; this usually means weak binding, but a binder can also be missed.

changes,mean log10 Kd (nM),detected
E32I T59C H98S,no signal,0/3
T59Y L102C,no signal,0/3
S58A T59K E61F,5.46,1/3
S38G T59M E61H,3.89,2/3
T59W Y97M P101T,2.39,1/3
S28P T59E Q96D,0.95,3/3
A57S T59Q H98M,1.83,3/3
T59S L100A L102K,4.77,3/3
S25G Q27R T59P,5.52,3/3
T59W R99A L100Y,3.95,2/3
Y31L T59L L100Y,2.26,3/3
S33E T59Q L100E,0.48,3/3
V39P T59Y S62R,4.62,2/3
K24R E32Y T59K,3.86,3/3
A40C T59K P101Q,4.10,1/3
S25P T59H S103H,3.43,1/3
S33V T59V E61S,3.62,3/3
W56M T59A Y97V,no signal,0/3
S38A S58D T59K,1.99,3/3
A40L S58C T59K,no signal,0/3
Q27D T59R R99N,1.44,3/3
Q27R T59C S62G,2.31,3/3
Q27H T59E L102A,0.67,3/3
L30W T59A S62Y,no signal,0/3
K36G T59C,1.17,3/3
L30T S38I T59S,no signal,0/3
E32M W56M T59Q,0.76,3/3
K24E T59G,no signal,0/3
S26E T59Q R99P,2.04,3/3
A40V T59N L102A,5.01,1/3
S25R N37Y T59G,4.98,1/3
T59W P101E,no signal,0/3
S28D A57V T59S,4.14,3/3
L30C S58T T59M,2.43,3/3
L30S T59F Q95H,3.03,3/3
V29Q N37D T59V,0.48,3/3
Q27I S33M T59H,1.84,3/3
T59G S62Y,4.09,1/3
L30H V39M T59Q,1.67,3/3
L30Q S33Q T59R,2.00,3/3
K24T T59S,3.30,3/3
T59D Y97N S103R,2.03,3/3
S25I S28Q T59H,-0.02,3/3
K36M T59E L102T,3.08,1/3
N37S T59M L102P,6.00,1/3
S25F S26R T59F,1.61,3/3
T59D,2.35,3/3
R34W T59N L102Y,no signal,0/3
S26I S28Y T59C,2.49,3/3
V29F E32W T59P,no signal,0/3
S26I V39T T59R,no signal,0/3
S28M E32H T59A,3.08,2/3
S25Y R34L T59D,1.86,3/3
K36D A57Y T59W,4.58,1/3
V29W T59P R99N,4.60,1/3
A57K T59K R99K,3.65,1/3
W56C T59Y S103T,1.73,2/3
T59V L100D,no signal,0/3
S25N T59F L100S,no signal,0/3
A40V T59G P101Y,no signal,0/3
K36N T59E P101D,4.65,2/3
E32N R34E T59F,0.79,3/3

Background: pairings of library AAYL50 with three empty control strains gave a value in 18% of cases (median 4.19, 5th percentile 2.99). Values in that range, when seen in few replicates, are hard to tell from nonspecific mating.

Reference: Engelhart et al. 2022, doi:10.1038/s41597-022-01779-4. File: FLAb, binding data.